Test results: BindingDB's records for doi:10.1007/bf02246453 (University of Turku, 1996)

Protein sequences, listed by entry. Tags and fused reporters are not part of them.
UniProt P14842, whole entry: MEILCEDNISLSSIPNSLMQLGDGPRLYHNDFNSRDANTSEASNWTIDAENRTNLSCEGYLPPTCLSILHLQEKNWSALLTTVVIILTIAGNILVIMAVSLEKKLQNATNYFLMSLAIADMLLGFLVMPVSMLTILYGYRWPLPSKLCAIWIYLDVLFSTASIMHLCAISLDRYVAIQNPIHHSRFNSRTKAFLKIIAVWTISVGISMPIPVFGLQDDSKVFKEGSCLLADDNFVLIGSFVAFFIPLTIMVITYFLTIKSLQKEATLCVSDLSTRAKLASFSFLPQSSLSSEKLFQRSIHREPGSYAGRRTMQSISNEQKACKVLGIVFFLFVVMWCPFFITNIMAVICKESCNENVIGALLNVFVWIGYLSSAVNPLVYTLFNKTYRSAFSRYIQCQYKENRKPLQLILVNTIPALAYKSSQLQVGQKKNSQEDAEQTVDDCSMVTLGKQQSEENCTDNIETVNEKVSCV

Biological target: 5-hydroxytryptamine receptor 2A (Rattus norvegicus, UniProt P14842)

CNCCC=C1c2ccccc2CCc2ccccc21 [NORTRIPTYLINE]
Ki: 5 nM
